Laboratory results: PubChem BioAssay AID624418 (National Center for Advancing Translational Sciences (NCATS), 2012)
This is a selection; strong and weak results do not stand in their true shares. Records with an inconclusive call do not appear. Activity calls are given as the source filed them. The call rests on the fitted dose curve; in most records, active means well fitted inhibition curve with a large enough effect; inconclusive means small, poorly fitted or top-dose-only effect, or another doubt; inactive means no such curve, though single readings can be large or run the other way.

assay: qHTS of GLP-1 Receptor Inverse Agonists: Cytotox Screen; conditions: HEK293 cAMP-luciferase reporter cells, luminescence, 24 h; series mostly up to 38.3 µM; activity change, negative = inhibition: at the top concentration;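 further: loss of luciferase light is scored as toxicity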
Text: The overall goal of this project was to develop a novel assay for discovering small molecule ligands for class B1 G protein-coupled receptors (GPCRs). Very few agonists (or inverse agonists) with generally weak activity for this entire group of physiologically important receptors are known to date. To establish proof-of-principle that this critical bottleneck can be overcome with a suitable screening approach, our studies focused on the class B1 receptor for glucagon-like peptide-1 (GLP-1R), a potential therapeutic target for diabetes and neurodegenerative disease.
The assay was developed using a cell-based functional readout. Toward this goal, stably transfected HEK293 cell clones were established that co-express (i) a cAMP-responsive luciferase reporter gene, and (ii) constitutively active GLP-1R that upon ligand interaction inhibit (inverse agonists) the luciferase activity. In addition, two control cell lines were developed: (i) one that express only the cAMP-responsive reporter gene to enable initial exclusion of GLP-1R independent effects of candidate probes; and (ii) one with the reported gene cloned with another constitutively active orphan receptor GPR119 to enable exclusion of GLP-1R independent inhibitor effects of candidate inverse agonists.
To that end, this assay was optimized for 1536-well format and screened against the MLSMR. Then the same collection was run in this cytotoxicity assay where inhibition was the undesired outcome.
NIH Molecular Libraries Probe Production Network [MLPCN]
NIH Chemical Genomics Center [NCGC]
PI Name: Martin Beinborn, Tufts Medical Center
Six ul of cell suspension (200 cells/uL in DMEM + 10% Nu serum + 1% pen-strep) is dispensed in a white solid 1536-well plate. The plates are incubated for 12 hours at 37 deg C at 5% CO2 followed by addition of 23 nL compounds. After 24 hr incubation at 37 deg C and 5% CO2, 3 uL of luciferase assay detection reagent is added. A luminescence read is obtained on the PerkinElmer Viewlux after 12 min incubation at room temperature.
On the % scale 0 is the no-effect control and ±100 the full control effect; potency means the concentration at half of the fitted maximal effect.

SMILES	activity change, negative = inhibition	Potency
O=[N+]([O-])c1cccc(NC2=NCC(CBr)S2)c1 (stereo unspecified)	inactive: -13.7%	–
COC(=O)C1(C)COP(=O)(Nc2ccccc2)OC1 (stereo unspecified)	inactive: -12.3%	–
O=C(O)CNc1ccc([As](=O)(O)O)cc1	inactive: 7.15%	–
Nc1ccc(CCCCOc2ccccc2)cc1	inactive: -11.1%	–
COc1ccc(N)c([N+](=O)[O-])c1[N+](=O)[O-]	inactive: -34.6%	–
CN(C)C1(CNC(=O)c2ccc(Cl)c(S(N)(=O)=O)c2)CCCCC1	inactive: 0.792%	–
O=P(Nc1ccccn1)(c1ccc(Br)cc1)c1ccc(Br)cc1	inactive: -7.77%	–
C[C@H]1OP(=O)(Oc2ccccc2)[C@H](O)[C@H](O)[C@H]1N=[N+]=[N-] (stereo partly specified)	inactive: 5.26%	–
O=P(Nc1nc2ccccc2s1)(c1ccccc1)c1ccccc1	inactive: -13.8%	–
O=[N+]([O-])c1ncn(CCn2cnc([N+](=O)[O-])n2)n1	inactive: -0.0623%	–
CC(=O)NC(SC(=S)N(C)C)C(Cl)(Cl)Cl (stereo unspecified)	inactive: -16.2%	–
O=[N+]([O-])c1ccc(O)c(/C=N/Nc2ccc([N+](=O)[O-])cc2[N+](=O)[O-])c1	–	active: 10 µM
O=[As](O)(c1ccccc1)c1ccc(O)cc1	inactive: -8%	–
Nc1ccc([As](=O)(O)c2ccc([N+](=O)[O-])cc2)cc1	inactive: 2.84%	–
C(Cc1nn[nH]n1)Cc1nn[nH]n1	inactive: 0.778%	–
O=C(OC1CN2CCC1CC2)c1cccc(Cl)c1 (stereo unspecified)	inactive: -9.64%	–
O=P(Nc1nccs1)(c1ccccc1)c1ccccc1	inactive: -1.56%	–
CC(C)C(=O)NC(Sc1ccccc1)C(Cl)(Cl)Cl (stereo unspecified)	inactive: 14.8%	–
c1nnnn1CCn1cnnn1	inactive: 0.438%	–
CCOc1ccc(C2=NCC(CBr)S2)cc1 (stereo unspecified)	inactive: 2.62%	–
O=P1(Nc2nc3ccc(Cl)cc3s2)COc2ccccc2O1 (stereo unspecified)	inactive: -7.52%	–

SMILES	activity change, negative = inhibition	Potency
CCc1cc(O)c([N+](=O)[O-])c(C)c1[N+](=O)[O-]	inactive: -0.683%	–
CC(C)(C)C(=O)NC(Sc1ccccc1)C(Cl)(Cl)Cl (stereo unspecified)	inactive: -2.43%	–
COC(=O)C1(C)COP(=O)(NCc2ccccc2)OC1 (stereo unspecified)	inactive: -2.2%	–
CC(=O)c1ccc(N2CC2c2ccncc2)cc1 (stereo unspecified)	inactive: 3.64%	–
C[C@@H]1C=CCP(=O)(Oc2ccccc2)O1 (stereo partly specified)	inactive: 8%	–
C[C@H]1OP(=O)(Oc2ccccc2)C[C@@H]2O[C@@H]21 (stereo partly specified)	inactive: 3.45%	–
Cc1ccccc1CN(C)C(=O)COC(=O)C(O)(c1ccccc1)c1ccccc1	inactive: 9.35%	–
CC(=O)Nc1ccc(Oc2c([N+](=O)[O-])cc([N+](=O)[O-])cc2[N+](=O)[O-])cc1	inactive: -23.7%	–
CC(=O)Nc1ccc([As](=O)(O)O)c(O)c1	inactive: 3.27%	–
O=C(NC1CCS(=O)(=O)C1)NP(=S)(Oc1ccccc1)Oc1ccccc1 (stereo unspecified)	inactive: 7.24%	–
CCNC(=S)/N=C(\N)N[N+](=O)[O-]	inactive: -12.6%	–
Cc1ccc(NP(=O)(Oc2cccc(C)c2)Oc2cccc(C)c2)nc1	inactive: 3.91%	–
c1ccc(-c2nn[nH]n2)c(-c2nn[nH]n2)c1	inactive: -2.9%	–
O=P1(N(CCCl)CCCl)OCCC2CCCCN21 (stereo unspecified)	inactive: -3.19%	–
Cc1ccc(OP(=O)(Nc2ccccn2)Oc2ccc(C)cc2)cc1	inactive: 3.31%	–
COC(=O)c1cc2c(s1)N=C(c1ccccc1)N(C)P2(=O)N1CCOCC1 (stereo unspecified)	inactive: -3.56%	–
CCC(=O)N1C2C3N(C(=O)CC)C1C1N(C(=O)CC)C(C(N1C(=O)CC)N3C(=O)CC)N2C(=O)CC	inactive: 1.03%	–
O=C(OC1CN2CCC1CC2)c1ccccc1 (stereo unspecified)	inactive: -0.133%	–
CN(C)C(=O)Oc1noc2ccccc12	inactive: 6.8%	–
CC(NC(=O)COC(=O)C(O)(c1ccccc1)c1ccccc1)c1ccccc1 (stereo unspecified)	inactive: 4.69%	–
